Experimental findings from patent publication US20140227208A1, “COSMETIC COMPOSITIONS CONTAINING SUBSTITUTED AZOLE AND METHODS FOR ALLEVIATING MECHANICALLY-INDUCED SKIN INFLAMMATION” (The Procter & Gamble Company, priority 2013, published 2014) are described below.

Chains of the proteins cited; added tags and fusions are not shown.
UniProt P08684, whole entry: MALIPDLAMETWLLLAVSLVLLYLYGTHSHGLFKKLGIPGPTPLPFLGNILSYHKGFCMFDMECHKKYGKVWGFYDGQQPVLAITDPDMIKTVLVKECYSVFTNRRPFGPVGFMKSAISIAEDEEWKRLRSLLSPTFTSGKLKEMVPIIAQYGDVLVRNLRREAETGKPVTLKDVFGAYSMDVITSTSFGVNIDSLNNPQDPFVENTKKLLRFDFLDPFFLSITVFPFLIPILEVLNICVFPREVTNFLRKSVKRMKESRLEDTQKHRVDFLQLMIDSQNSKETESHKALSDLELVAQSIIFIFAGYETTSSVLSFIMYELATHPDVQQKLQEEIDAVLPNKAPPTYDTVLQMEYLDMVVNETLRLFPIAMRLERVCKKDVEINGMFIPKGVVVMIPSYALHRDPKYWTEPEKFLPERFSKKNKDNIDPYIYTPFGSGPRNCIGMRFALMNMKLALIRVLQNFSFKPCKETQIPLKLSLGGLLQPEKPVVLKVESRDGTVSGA

The test system of data set [1] is ATRA 4-hydroxylase activity (CYP) of pig liver microsomes. Nature of the data set: In vitro ATRA 4-hydroxylase (CYP) inhibition assay using pig liver microsomes. The following applies: read-out: IC50 (μM), in vitro 4-hydroxylase inhibition assay, 1 μM ATRA, 5 mM NADPH, 37° C., 90 min. In general terms: Microsomes from liver hold many membrane-bound enzymes, among them those of drug oxidation.

The next data set concerns the target CYP3A4 (Homo sapiens, UniProt P08684). Particulars: recombinant enzyme.

A word on the IC50: it is the point on the concentration scale where inhibition reaches its midpoint. As for `CC(C)(C)C(=O)C(Oc1ccc(Cl)cc1)n1ccnc1` (stereo not drawn) [Climbazole], the IC50 in data set [1] is 47.5 µM.
For Diltiazem, on CYP3A4, the “Hit / no hit for inhibition of CYP3A4” value is “no hit >10 uM (key: hit: strong inhibition (IC50 value<10 μM); no hit: weak/no inhibition (IC50 value>10 μM))” and the IC50 is more than 10 µM.
